From ChEMBL document CHEMBL4602710 (ACS Med Chem Lett, 2020) come the findings set out here.

In assay [1] the target is T1, Tyrosine-protein kinase SYK (Homo sapiens, UniProt P43405). Put plainly: Inhibition of SYK (unknown origin) in B cells assessed as reduction in alpha IgM-stimulated MEK phosphorylation at S217/S221 residue.
The target in assay [2] is T1, Tyrosine-protein kinase SYK. As to the kind of experiment: Inhibition of SYK (unknown origin) in B cells assessed as reduction in alpha IgM-stimulated B cells activation by measuring reduction in CD69 expression.
For assay [3] the target is unchanged. As to the kind of experiment: Inhibition of SYK (unknown origin) in B cells assessed as reduction in alpha IgM-stimulated ERK phosphorylation at T202/Y204 residue.
For assay [4] the target is unchanged. As to the kind of experiment: Inhibition of SYK (unknown origin) in macrophages assessed as reduction in immune complex-stimulated IL-6 secretion.
For assay [5] the target is unchanged. As to the kind of experiment: Inhibition of SYK (unknown origin) in B cells assessed as reduction in alpha IgM-stimulated BTK phosphorylation at Y223 residue.
Assay [6] has the same target. Put plainly: Inhibition of SYK in human Ramos cells assessed as reduction in antihuman IgM F(ab)2-induced phosphorylation of BLNK at Y96 residue preincubated for 1 hr followed by antihuman IgM F(ab)2 stimulation for 5 mins by MSD high bind plate assay. In kind it is cell-based.
Assay [7] shares this target. Put plainly: Inhibition of SYK (unknown origin) in B cells assessed as reduction in alpha IgM-stimulated AKT phosphorylation at S473 residue.
Assay [8] shares this target. As to the kind of experiment: Inhibition of SYK (unknown origin) in macrophages assessed as reduction in immune complex-stimulated IL-1 beta secretion.
For assay [9] the target is unchanged. As to the kind of experiment: Inhibition of SYK in human whole blood assessed as reduction in anti-FCepsilonR1 mAb-induced basophil activation by measuring decrease in CD63 surface expression incubated for 60 mins followed by anti-FCepsilonR1 mAb stimulation for 20 mins by flow cytometry analysis. Format: tissue-based. (Flow cytometry measures light scatter and fluorescence of single cells or particles in a stream.)

Assay [10] has the same target. Put plainly: Inhibition of SYK (unknown origin) in macrophages assessed as reduction in immune complex-stimulated TNFalpha secretion.
Assay [11] has the same target. As to the kind of experiment: Inhibition of SYK (unknown origin) in B cells assessed as reduction in alpha IgM-stimulated B cells activation by measuring reduction in CD86 expression.

Molecules are shown by their SMILES.

Usually EC50 stands for the midpoint of the concentration-response curve. Take `Nc1cncc(-c2cn3ccnc3c(Nc3ccc(N4CCN(C5COC5)CC4)cc3)n2)n1` [LANRAPLENIB]: the EC50 in assay [1] amounted to 51 nM; in [2], 112 nM; in assay [3], 37 nM; in assay [4], 700 nM; in assay [5] it was 26 nM; in [6], 24 nM. Also, the EC50 in [7] is 34 nM; in [8], 90 nM; in assay [9], 73 to 76 nM; in [10], 180 nM; in [11] it was 164 nM.
